Laboratory results: article PMC6983048 (Molecules, 2019)

Target: T1, recombinant human DHFR enzyme (Homo sapiens, UniProt P00374)
T1 construct: purchased
T1 sequence (P00374 1-187): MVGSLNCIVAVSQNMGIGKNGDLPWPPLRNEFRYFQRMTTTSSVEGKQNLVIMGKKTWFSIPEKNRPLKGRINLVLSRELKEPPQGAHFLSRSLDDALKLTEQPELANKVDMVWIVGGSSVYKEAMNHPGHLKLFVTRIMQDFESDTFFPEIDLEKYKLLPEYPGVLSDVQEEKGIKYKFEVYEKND
Assay: Dihydrofolate reductase (DHFR) inhibition assay
Type: biochemical
Conditions: pH 7.5, 22 °C, absorbance 340 nm
Protocol: The procedure for detection of DHFR activity inhibition included preparation of a test mixture in a 1.0 mL quartz cuvette for the spectrophotometric method. Assay buffer—1× for DHFR (pH 7.5) and 1.5 × 10^−3 units of DHFR were added to the appropriate tube and thoroughly mixed. […] After mixing accurately, the reaction was initiated by adding 10 mM dihydrofolic acid (5 µL for each reaction) and a kinetics program was immediately started. The changes in absorbance (ΔOD/ min) were measured by the spectrophotometer Specord 200Plus (Analytikjena, Germany) at 340 nm and 22 °C, and the kinetic program (reading every 15 s for 2.5 min) according to the instructions supplied with the set and recommended by the producer.

COc1cc(CCC(=O)Nc2cnc(N)nc2)cc(OC)c1OC [Compound 3, N-(2-Aminopyrimidin-5-yl)-3-(3,4,5-Trimethoxyphenyl)Propanamide]
IC50: 720 nM
